The list shows a part of the results, in another mix than the full data. Active and inactive are the calls of the source.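 The calls were made as follows: active = inhibition above the mean inhibition of all tested compounds plus 3 SD, computed separately for each screening campaign (cut at about 15% in these data); inactive = the rest.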
target: Serine/threonine-protein phosphatase PP1-alpha catalytic subunit (Homo sapiens) (UniProt P62136); assay: PP1-alpha phosphatase inhibitors, primary screen, counter-screen for PP5 inhibitor project, biochemical, fluorescence, OMFP substrate, single point (AID 2235); conditions: purified PP1alpha, at 6.7 µM, hits give high values

Chains of the proteins cited; added tags and fusions are not shown.
UniProt P62136, whole entry, looked up: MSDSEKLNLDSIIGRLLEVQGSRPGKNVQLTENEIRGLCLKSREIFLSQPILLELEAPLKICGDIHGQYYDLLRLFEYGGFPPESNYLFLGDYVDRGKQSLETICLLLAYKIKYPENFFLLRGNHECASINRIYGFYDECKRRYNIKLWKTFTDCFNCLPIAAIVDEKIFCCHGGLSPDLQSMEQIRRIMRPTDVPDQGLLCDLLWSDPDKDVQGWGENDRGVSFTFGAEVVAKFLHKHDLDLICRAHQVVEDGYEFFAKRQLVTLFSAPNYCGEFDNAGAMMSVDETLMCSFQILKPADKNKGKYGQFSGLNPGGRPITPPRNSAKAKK

| Structure (SMILES) | inhibition |
| --- | --- |
| O=[As](O)(c1ccc(O)cc1)c1ccccc1O | inactive: 1.94% |
| C[As](=O)(O)c1cccc(C(=O)O)c1 | inactive: 4.79% |
| O=[N+]([O-])c1cc([N+](=O)[O-])c(-c2ccn[nH]2)s1 | inactive: -2.03% |
| CC(C)NC(=O)NP(=O)(Oc1ccccc1)Oc1ccccc1 | inactive: -1.49% |
| CCN(CC)C(=S)SC(NC=O)C(Cl)(Cl)Cl (stereo not given) | inactive: -2.08% |
| ClCCSc1nnc(-c2cccnc2)o1 | inactive: -1.34% |
| CC(C)c1ccc(OP(=O)(Nc2ccccn2)Oc2ccccc2F)cc1 (stereo not given) | inactive: -1.6% |
| COc1cc(I)ccc1[As](=O)(O)O | inactive: 0.53% |
| COc1ccc2nc(NP(=O)(c3ccccc3)c3ccccc3)sc2c1 | inactive: -0.42% |
| Cc1c2c(nc3ccccc13)SC(C(Cl)Cl)C2 (stereo not given) | inactive: 4.72% |
| Cc1cc(=O)[nH]c(N[N+](=O)[O-])n1 | inactive: -4.26% |
| O=C(OC1CN2CCC1CC2)C12CC3CC(CC(C3)C1)C2 (stereo not given) | inactive: -2.15% |
| COc1ccc(N/C(=N/P(=O)(N2CCOCC2)N2CCOCC2)N2CCOCC2)cc1 | inactive: 3.53% |
| O=C(Nc1ccncc1[N+](=O)[O-])c1ccc([N+](=O)[O-])cc1[N+](=O)[O-] | inactive: -2.48% |
| O=C(COc1ccccc1)OC1CN2CCC1CC2 (stereo not given) | inactive: -1.9% |
| COP1(=S)c2c(C)nn(CCC#N)c2N=C(c2ccc(F)cc2)N1C (stereo not given) | inactive: -1.78% |
| CCC(C)N(CC(C)C)C(=S)SC(NC(C)=O)C(Cl)(Cl)Cl (stereo not given) | inactive: -0.87% |
| O=C(OC1CN2CCC1CC2)c1cccc([N+](=O)[O-])c1 (stereo not given) | inactive: 2.16% |
| CCOC(=O)c1ccc(NC(=O)C(C)(CCl)SC)cc1 (stereo not given) | inactive: 3.64% |
| Cc1cc(SC(NC(=O)c2ccccc2)C(Cl)(Cl)Cl)nc(C(C)C)n1 (stereo not given) | inactive: -2.24% |
| CCOC(=O)Nc1ccc([As](=O)(O)O)c(O)c1 | inactive: -0.13% |
| Cc1cc(SC(NC=O)C(Cl)(Cl)Cl)ncn1 (stereo not given) | inactive: -5.03% |
| O=P(Nc1ccccn1)(c1cccc2ccccc12)c1cccc2ccccc12 | inactive: 1.45% |
| CCOC(=O)Nc1cccc([As](=O)(O)O)c1 | inactive: -1.55% |
| O=C(Nc1cc([As](=O)(O)O)ccc1O)c1ccccc1 | inactive: -2.88% |

| Structure (SMILES) | inhibition |
| --- | --- |
| O=[N+]([O-])c1cccc(NC2=NCC(CBr)S2)c1 (stereo not given) | inactive: -1.04% |
| O=[N+]([O-])c1ncn(CCn2ncnc2[N+](=O)[O-])n1 | inactive: -4.62% |
| CC(C)(C)C(=O)NC(Sc1ccncn1)C(Cl)(Cl)Cl (stereo not given) | inactive: -3.7% |
| O=[N+]([O-])c1cc([N+](=O)[O-])c(CCNc2ccccc2)c([N+](=O)[O-])c1 | inactive: -2.81% |
| CCc1nc2c(n1)c1c(non1O)c1c2no[n+]1[O-] | inactive: 4.48% |
| Cc1ccc(NP(=O)(Oc2ccccc2)Oc2ccccc2)nc1 | inactive: 5.04% |
| CC(=O)N1C2C3N(C(C)=O)C1C1N(C(C)=O)C(C(N1C(C)=O)N3C(C)=O)N2C(C)=O | inactive: -0.66% |
| O=[N+]([O-])c1cccc2n[nH]nc12 | inactive: -4.11% |
| COc1ccc(C2=NCC(CBr)S2)cc1 (stereo not given) | inactive: -4.06% |
| CC1CCN(C(=O)Oc2c(Cl)cc(Cl)c3cccnc23)CC1 | inactive: 0.32% |
| CN(C)C(=O)OCCc1n(C)cc[n+]1C | inactive: -1.26% |
| CC(C)=N/N=C(\N)N[N+](=O)[O-] | inactive: -4.11% |
| CCN(/C(=N/P(=O)(N1CCOCC1)N1CCOCC1)N1CCOCC1)c1ccc(OC)cc1 | inactive: -3.14% |
| C[N+]1=C2C=CC=CC=C2SC12C([N+](=O)[O-])=CC([N+](=O)[O-])=C[C-]2[N+](=O)[O-] (stereo not given) | inactive: 9.14% |
| Nc1ccc([As](=O)(O)c2ccc(N)cc2)cc1 | inactive: -0.01% |
| CN1CCCC(OC(=O)C(c2ccccc2)c2ccccc2)C1 (stereo not given) | inactive: -3.16% |
| Clc1ccc(Cl)c(NC2=NCC(CBr)S2)c1 (stereo not given) | inactive: 0.04% |
| Cc1ccc(OP(=O)(Nc2nccs2)Oc2ccc(C)cc2)cc1 | inactive: -4.19% |
| COc1ccccc1OP(=O)(Nc1ccc(C)cn1)Oc1ccccc1OC | inactive: -0.57% |
| Cc1ccc(N/C(=N/P(=O)(N2CCOCC2)N2CCOCC2)N2CCOCC2)cc1 | inactive: 1.2% |
| CN(C(=O)Cc1ccc(Cl)c(Cl)c1)[C@H]1CCCC[C@H]1N1CCCC1 | inactive: -1.95% |
| NC(=O)c1cc([N+](=O)[O-])cc([N+](=O)[O-])c1N | inactive: 1.93% |
| O=C(NC(Sc1ccncn1)C(Cl)(Cl)Cl)c1ccccc1 (stereo not given) | inactive: -0.1% |
| Cc1c2non([O-])c-2c(C)[n+](=O)[n+]1[O-] | inactive: -2.51% |
| Oc1ccccc1CNc1ccccn1 | inactive: 1.14% |

— PubChem BioAssay AID2235 (The Scripps Research Institute Molecular Screening Center, 2010)
